From article PMC8317212 (Journal of medicinal chemistry, 2016) come the findings set out here.

Amino acid sequences for entries named in this document (tags omitted).
UniProt P28223, whole entry: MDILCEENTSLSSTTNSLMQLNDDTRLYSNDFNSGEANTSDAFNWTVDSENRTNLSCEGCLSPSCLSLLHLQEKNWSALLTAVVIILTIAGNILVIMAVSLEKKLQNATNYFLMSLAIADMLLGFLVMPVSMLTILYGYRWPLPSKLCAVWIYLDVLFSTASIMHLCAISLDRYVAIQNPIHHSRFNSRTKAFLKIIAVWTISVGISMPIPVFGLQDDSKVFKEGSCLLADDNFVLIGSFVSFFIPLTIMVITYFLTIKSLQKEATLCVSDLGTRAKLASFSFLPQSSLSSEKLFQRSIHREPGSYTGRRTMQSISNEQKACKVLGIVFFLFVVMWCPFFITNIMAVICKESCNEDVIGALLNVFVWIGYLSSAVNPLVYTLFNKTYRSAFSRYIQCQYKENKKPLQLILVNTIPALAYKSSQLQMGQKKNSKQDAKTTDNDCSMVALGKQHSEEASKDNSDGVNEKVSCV

The target of data set [1] is human 5-HT2A (Homo sapiens, UniProt P28223). As to the kind of experiment: FLIPR calcium flux assay, 5-HT2A. The class given is cell-based.
Data set [2] deals with mice. The following applies: mouse, in vivo.
For data set [3], the system named is C57BL/6 mice. To be noted: mouse, in vivo.
In data set [4] the test system is WT and NR1-KD mice. The following applies: mouse, in vivo.
Data set [5] relates to C57BL/6J mice. To be noted: mouse, in vivo.

Turning to `C=CCOc1cc(F)c(F)cc1C1CC1CN.Cl` (single isomer, unassigned; (+)) [(+)-22a, (+)-[2-[2-(Allyloxy)-4,5-difluorophenyl]cyclopropyl]methanamine Hydrochloride], in data set [1], the “Emax 5-HT2A” value is reported as 491 (21%). In addition, the “baseline locomotion in open field (0–15 min)” value in data set [2] is “small, albeit significant (p < 0.040) reduction in locomotion”. Further, in data set [3], the “PPI, compound alone” value is reported as “similarly high levels of PPI with the Veh + Veh group” and the “startle (pulse-only) response to 120 dB stimulus” value is given as “decreased startle activities”. Besides, in data set [4], the “novel object preference (NORM), NR1-KD mice” value is on record as “significantly enhanced this preference”; the “novel object preference (NORM), WT mice” value is on record as “attenuation in NORM”; the “total object exploration time” value is reported as “object exploration was similar between genotypes”. Moreover, the “catalepsy one hour after injection” value in data set [5] is given as “catalepsy was very low”.
